The results in this text go back to patent US20230080842A1 (WUHAN YZY BIOPHARMA, published 2023).

The chains behind the UniProt entries cited, without tags or fusion partners. A line that says so, or that is headed by a name, gives the form on record, which may keep a tag or linker.
UniProt P15692, other isoform, or with tags, fused parts or gaps: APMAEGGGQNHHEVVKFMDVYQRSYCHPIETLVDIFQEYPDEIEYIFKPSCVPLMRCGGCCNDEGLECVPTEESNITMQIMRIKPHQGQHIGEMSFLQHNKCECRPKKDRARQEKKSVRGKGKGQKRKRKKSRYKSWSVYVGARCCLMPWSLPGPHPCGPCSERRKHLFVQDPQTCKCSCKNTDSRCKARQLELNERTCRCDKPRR

As usually defined, the EC50 is the concentration giving half of the maximal effect. Low values mean higher potency in that assay, high ones lower potency in that assay.

This assay addresses T1, Human VEGFA (human, UniProt P15692 207-395).
T1 construct: also called VEGF antigen; not shown: His tag
The experiment in a line: ELISA, plate coated with His-tagged antigen.

B1: G631mAb (antibody, human IgG1, kappa, V domains shown)
VH: EVQLVESGGGLVQPGGSLRLSCAASGFTISDYWIHWVRQAPGKGLEWVAGITPAGGYTYYADSVKGRFTISADTSKNTAYLQMNSLRAEDTAVYYCARFVFFLPYAMDYWGQGTLVTVSS
VL: DIQMTQSPSSLSASVGDRVTITCRASQDVSTAVAWYQQKPGKAPKLLIYSASFLYSGVPSRFSGSGSGTDFTLTISSLQPEDFATYYCQQGYGNPFTFGQGTKVEIKR
notes: anti-VEGF monoclonal antibody, human IgG1 constant domains, kappa
Regarding B1, the midpoint of the response, the EC50, lay at 0.03 nM.
